# Laboratory results: publication PMC3811480, “The R Enantiomer of the Antitubercular Drug PA-824 as a Potential Oral Treatment for Visceral Leishmaniasis” (Antimicrobial Agents and Chemotherapy, 2013)
# Legend:
# [1] = system: Mycobacterium tuberculosis; parameters: method as in PMID 22023140; conditions: M. tuberculosis, S versus R enantiomer; cited from earlier work
# [2] = system: Leishmania donovani LdBOB promastigotes; experiment: In vitro drug sensitivity assay, L. donovani promastigotes (72 h, resazurin); assay type: cell-based; conditions: promastigotes and intracellular amastigotes
# [3] = system: L. donovani intracellular amastigotes in mouse peritoneal macrophages; experiment: In-macrophage drug sensitivity assay; assay type: cell-based, Leishmania donovani; conditions: leishmania-infected macrophages
compound,measurement,setting,value
"O=[N+]([O-])c1cn2c(n1)OC[C@@H](OCc1ccc(OC(F)(F)F)cc1)C2 [(S)-PA-824, reference compound]",fold more active than the R enantiomer,[1],> 100 fold
O=[N+]([O-])c1cn2c(n1)OC[C@H](OCc1ccc(OC(F)(F)F)cc1)C2 [(R)-PA-824],fold more potent inhibitor of L. donovani growth in vitro than the S enantiomer,[2],~5 fold
same,fold more active/potent than (S)-PA-824 in the intramacrophage assay,[3],6 fold and 5 fold

# “And” between values parts separate entries of the source, which are not always exact repeats. Equal entries are not always repeated.
